Target: T1, SIRT2 (Homo sapiens, UniProt Q8IXJ6)
T1 construct: For assay experiments, strep-tagged human SIRT1134−747 and SIRT256-356 were expressed and purified as previously; Strep-tag; made in house; host or cells: E. coli BL21 Star (DE3)
T1 sequence (Q8IXJ6 56-356 limits assumed): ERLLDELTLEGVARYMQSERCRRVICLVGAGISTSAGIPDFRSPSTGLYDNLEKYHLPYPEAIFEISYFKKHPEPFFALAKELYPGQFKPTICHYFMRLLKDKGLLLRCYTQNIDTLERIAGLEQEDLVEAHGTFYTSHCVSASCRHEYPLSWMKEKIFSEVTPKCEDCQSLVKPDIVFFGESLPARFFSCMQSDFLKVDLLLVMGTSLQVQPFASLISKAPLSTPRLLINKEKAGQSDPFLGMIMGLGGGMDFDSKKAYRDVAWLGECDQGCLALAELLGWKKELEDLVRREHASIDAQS
Experiment: Differential scanning fluorimetry (DSF) / fluorescence thermal shift assay
Format: binding

Structure (SMILES): Cc1cc(C)nc(SCC(=O)Nc2ncc(Cc3cccc(OCc4cn(Cc5ccc(OCCN6CCOCC6)cc5)nn4)c3)s2)n1 [Compound 2, reference compound]
- ΔTm, difference in SIRT2 melting temperature upon NAD+ addition compared to NAD+ exclusion: 0.5 °C

From article PMC12723449, “From Pharmacophore to Warhead: NAD^+‐Targeting Triazoles as Mechanism‐Based Sirtuin Inhibitors” (Angewandte Chemie (International Ed. in English), 2025)
